Results: patent US12467928B2, “N-terminal modifier agents and binders for treating and analyzing peptides” (Encodia, Inc., priority 2023, dated 2025)

Molecular target: human carbonic anhydrase II (hCAII) (Homo sapiens, UniProt P00918)
Test: hCAII functional assay (pNP-OAc hydrolysis) with SABA-modified peptides
Assay type: biochemical
Conditions: native (unmodified) peptide
Method: A functional assay for hCAII enzyme was set up. Carbonic anhydrase catalyzes the hydrolysis of 4-nitrophenyl acetate (4-NPA) to nitrophenol, which can be monitored by absorbance at 400 nm. The enzymatic carbonic anhydrase assay generally includes 0.2-1.0 μM enzyme and 10-500 μM 4-NPA in 20-200 μL in assay buffer. […] Metal chelating agents (EDTA or EGTA), salt (NaCl, sulfate), detergent (Tween or Triton), and organic additives (acetonitrile, DMSO) may be employed to facilitate enzyme stability and reagent solubility. For the assay, 1 μM human carbonic anhydrase II, 50 mM MOPS (pH 7.6), 33 mM disodium sulfate, and 1 mM EDTA. To generate NTM-modified peptides, azide-derivatized peptides (via azide-PEG-amine and carbodiimide coupling to C-terminus of peptide) were conjugated to DBCO-coupled beads. […] To evaluate P1 dependence of the binding reaction, multiple P1 residues has been tested.

- binding/inhibition: No significant binding/inhibition
Compound: C[C@H](NC(=O)[C@H](C)NC(=O)[C@@H](N)Cc1ccccc1)C(=O)N[C@@H](C)C(=O)N[C@@H](CCC(=O)O)C(=O)O [FAAAE, reference compound]
